The entries are a selection whose mix differs from that of the whole data set. Records with an inconclusive call do not appear. The source made the active and inactive calls. Calls come from the whole dose curve; as a rule, active = well fitted inhibition curve with a large enough effect; inconclusive = small, poorly fitted or top-dose-only effect; inactive = flat fitted curve, though single readings scatter.

By UniProt entry, the sequences of proteins in these tests, tags left out.
UniProt P53350, whole entry, looked up: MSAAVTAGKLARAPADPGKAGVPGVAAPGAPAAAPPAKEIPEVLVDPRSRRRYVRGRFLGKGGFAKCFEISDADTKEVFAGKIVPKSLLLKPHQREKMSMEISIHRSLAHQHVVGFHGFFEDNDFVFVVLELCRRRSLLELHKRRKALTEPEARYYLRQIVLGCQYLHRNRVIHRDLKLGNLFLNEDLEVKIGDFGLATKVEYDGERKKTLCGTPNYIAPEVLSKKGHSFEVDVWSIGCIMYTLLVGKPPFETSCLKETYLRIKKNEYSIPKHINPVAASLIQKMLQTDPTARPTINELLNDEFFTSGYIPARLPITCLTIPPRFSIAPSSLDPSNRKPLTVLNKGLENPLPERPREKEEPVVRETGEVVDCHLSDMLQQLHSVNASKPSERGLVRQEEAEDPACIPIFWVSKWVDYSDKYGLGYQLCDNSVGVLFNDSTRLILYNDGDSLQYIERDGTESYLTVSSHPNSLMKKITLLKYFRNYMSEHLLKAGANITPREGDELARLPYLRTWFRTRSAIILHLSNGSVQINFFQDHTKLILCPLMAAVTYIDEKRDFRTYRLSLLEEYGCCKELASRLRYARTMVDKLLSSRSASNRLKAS

We go through 65 compounds from PubChem BioAssay AID720504 (National Center for Advancing Translational Sciences (NCATS), 2013).
% is set by controls: 0 for no effect and ±100 for the full control effect; potency is the fitted concentration of half-maximal effect.

The assay has as its target Serine/threonine-protein kinase PLK1 (Homo sapiens) (UniProt P53350). Put plainly: qHTS for Inhibitors of PLK1-PDB (polo-like kinase 1 - polo-box domain): Primary Screen. For max response, negative = inhibition: series mostly up to about 57 µM. Note: nearly all actives have a fitted effect of over 65% in size. Conditions: Plk1 PBD binding of FITC phosphopeptide, fluorescence polarization. (In general: In qHTS, concentration-response curves come from the screen itself.)
With `CN(C(=O)Cc1ccccc1)[C@@H]1CC[C@]2(CCCO2)C[C@H]1N1CCCC1`, the max response, negative = inhibition was inactive: -6.71%. For `N#CCCN(C(=O)COC(=O)C(O)(c1ccccc1)c1ccccc1)c1ccc(F)cc1`, the max response, negative = inhibition is inactive: -8.82%. Regarding `Cc1ccc(C(=O)OC2CN3CCC2CC3)cc1` (stereo not given), the max response, negative = inhibition was inactive: 1.42%. As for `CC1CCC(C(C)C)C(OP(=O)(Nc2ccccn2)c2ccccc2)C1` (stereo not given), the max response, negative = inhibition is inactive: -4.39%.

In the case of `Cc1nn(-c2ccccc2)c2c1P(=O)(N1CCOCC1)N(C)C(c1ccccc1)=N2` (stereo not given), the max response, negative = inhibition was inactive: -10.3%. With `CCCC1OP(=O)(Nc2ccccc2)OCC1CC` (stereo not given), the max response, negative = inhibition is inactive: -9.84%. Still for that read-out and setting: for `O=C(/C=C/c1ccccc1)OC1CN2CCC1CC2` (stereo not given) the value was inactive: -11.4%.

Consider `CN(C)C1(CNC(=O)c2ccc(S(C)(=O)=O)cc2)CCCCC1`, for which the max response, negative = inhibition is inactive: 1.25%. As to `Cc1ccc(S(=O)(=O)N(CCCN)CCCc2c(C)nc(N)[nH]c2=O)cc1`, the max response, negative = inhibition is inactive: -13.1%.

Take `Cc1ccc(OCC(=O)OC2CN3CCC2CC3)cc1` (stereo not given): the max response, negative = inhibition is inactive: 0.33%.

Regarding `O=[As](O)(c1cccs1)c1cccs1`, the max response, negative = inhibition is inactive: -1.23%. Consider `NS(=O)(=O)c1cccc(NC(=O)COC(=O)C(O)(c2ccccc2)c2ccccc2)c1`, for which the max response, negative = inhibition is inactive: 1.99%. Turning to `O=P1(Nc2ccc(Br)cn2)COc2ccccc2OC1`, the max response, negative = inhibition is inactive: -0.38%. `Nc1cccc([As](=O)(O)c2ccccc2)c1`: the max response, negative = inhibition was inactive: -7.31%. As for `CCOP(=O)(Nc1ccc(C)cn1)OCC`, the max response, negative = inhibition was inactive: -2.59%.

`CN(CCCl)Cc1cc(Cl)c(NC2=NCCN2)c(Cl)c1`: the max response, negative = inhibition was inactive: -23.7%. `CCOP(=O)(NC(=NC(C)c1ccccc1)NC(C)c1ccccc1)OCC` (stereo not given): the max response, negative = inhibition is inactive: -6.5%. For the compound `CCC1=CC2Cc3nc4ccc(Cl)cc4c(N)c3C(C1)C2` (stereo not given), the max response, negative = inhibition was inactive: -6.66%. Turning to `O=P1(Nc2ccccn2)COc2ccccc2OC1`, the max response, negative = inhibition is inactive: 1.15%. As to `Clc1n[nH]nc1-c1nn[nH][15n]1`, the max response, negative = inhibition was inactive: -6.6%. The same measure, in the same setting: the figure for `O=P1(N(CCCl)CCCl)NCCC(C(F)(F)F)O1` (stereo not given) is inactive: -5.31%; for `COc1ccccc1CNC(=O)COC(=O)C(O)(c1ccccc1)c1ccccc1` it is inactive: -4%; for `CC1(CBr)Cn2c(nc3ccccc3c2=O)S1` (stereo not given) it is inactive: -7.09%. For `CN(C(=O)Cc1ccc(Cl)c(Cl)c1)[C@@H]1CCCC[C@H]1N1CCCC1`, the max response, negative = inhibition was inactive: -22.2%.

`CC(C)/C=N\N=C(\N)N[N+](=O)[O-]`: the max response, negative = inhibition is inactive: -10.7%.

`COC(=O)C1(C)COP(=O)(N2CCCC2)OC1` (stereo not given): the max response, negative = inhibition is inactive: -13.6%. Still for that read-out and setting: the figure for `COP1(=S)c2c(C)nn(CCC#N)c2N=C(c2ccc(F)cc2)N1C` (stereo not given) is inactive: -13.8%; for `O=C(Nc1ccncc1[N+](=O)[O-])c1ccc([N+](=O)[O-])cc1[N+](=O)[O-]` it is inactive: -10.9%; for `O=C(COc1ccccc1)OC1CN2CCC1CC2` (stereo not given) it is inactive: -0.165%. In the case of `O=C(O)C(=O)c1ccc(N(CCCl)CCCl)cc1`, the max response, negative = inhibition is inactive: -15.4%.

For `CCOC(=O)c1ccc(NC(=O)C(C)(CCl)SC)cc1` (stereo not given), the max response, negative = inhibition was inactive: -16.9%. As to `CSc1ccc(Nc2c([N+](=O)[O-])cc([N+](=O)[O-])cc2[N+](=O)[O-])cc1`, the max response, negative = inhibition is inactive: -16.2%. As for `O=C(OC1CN2CCC1CC2)c1cccc([N+](=O)[O-])c1` (stereo not given), the max response, negative = inhibition was inactive: -0.918%. Regarding `CC1CCNP(=O)(N(CCCl)CCCl)O1` (stereo not given), the max response, negative = inhibition is inactive: -2.74%.

For `O=C(O)C(O)c1ccc(N(CCCl)CCCl)cc1` (stereo not given), the max response, negative = inhibition is inactive: -5.22%.

For `CCOC(=O)Nc1ccc([As](=O)(O)O)c(O)c1`, the max response, negative = inhibition was inactive: -21.9%. In the case of `Cc1cc(SC(NC(=O)c2ccccc2)C(Cl)(Cl)Cl)nc(C(C)C)n1` (stereo not given), the Potency is active: 15 µM. `CCCCOc1ccc(C(=O)NCC2(N3CCCCC3)CCCCC2)cc1OC`: the max response, negative = inhibition is inactive: -4.87%. `COP(=O)(OC)N1CC1c1ccccc1` (stereo not given): the max response, negative = inhibition was inactive: -3.87%. On to `CCOC(=O)Nc1cccc([As](=O)(O)O)c1`, for which the max response, negative = inhibition was inactive: -13.2%. Take `O=[N+]([O-])c1ccc(Nc2ccc(Oc3ccc([N+](=O)[O-])cc3[N+](=O)[O-])cc2)c([N+](=O)[O-])c1`: the max response, negative = inhibition was inactive: -10.2%. For `Cc1cc(SC(NC=O)C(Cl)(Cl)Cl)ncn1` (stereo not given), the Potency was active: 26.7 µM. As for `O=P(Nc1ccccn1)(c1cccc2ccccc12)c1cccc2ccccc12`, the max response, negative = inhibition is inactive: -7.07%. Take `O=[N+]([O-])c1ccc(-c2cc([N+](=O)[O-])c(O)c([N+](=O)[O-])c2)cc1`: the Potency was active: 29.9 µM. Consider `COc1cc(C(=O)NCC2(N3CCOCC3)CCCCC2)ccc1OCC(C)C`, for which the max response, negative = inhibition was inactive: -6.93%. Same read-out and setting: the figure for `C[As](=O)(O)c1cccc(C(=O)O)c1` is inactive: -8.13%. With `O=[As](O)(c1ccc(O)cc1)c1ccccc1O`, the max response, negative = inhibition is inactive: 1.54%. With `Cc1ccc2nc3c(c(C)c2c1)CC(C(Cl)Cl)S3` (stereo not given), the max response, negative = inhibition is inactive: -7.44%.

As for `Cc1ccc(OP(=O)(Nc2ccc([N+](=O)[O-])cn2)Oc2ccc(C)cc2)cc1`, the max response, negative = inhibition was inactive: -12.7%. Consider `[N-]=[N+]=NC1CCCCC1NC(=O)c1cc([N+](=O)[O-])cc([N+](=O)[O-])c1` (stereo not given), for which the max response, negative = inhibition was inactive: -7.94%.

Consider `COC(=O)C1(C)COP(=O)(N2CCCCCC2)OC1` (stereo not given), for which the max response, negative = inhibition was inactive: 1.25%. Consider `CC(C)c1ccc(OP(=O)(Nc2ccccn2)Oc2ccccc2F)cc1` (stereo not given), for which the max response, negative = inhibition is inactive: -2.99%. `ClCCSc1nnc(-c2cccnc2)o1`: the max response, negative = inhibition is inactive: -10.4%. As to `O=[N+]([O-])c1cc([N+](=O)[O-])c(-c2ccn[nH]2)s1`, the max response, negative = inhibition was inactive: -28.1%. Still for that read-out and setting: for `CC(C)NC(=O)NP(=O)(Oc1ccccc1)Oc1ccccc1` the value was inactive: -9.05%. Regarding `CCN(CC)C(=S)SC(NC=O)C(Cl)(Cl)Cl` (stereo not given), the Potency is active: 13.4 µM. Take `O=C(OC1CN2CCC1CC2)c1cccc2[nH]cnc12` (stereo not given): the max response, negative = inhibition is inactive: -3.14%. Same read-out and setting: the figure for `Cc1cc(=O)[nH]c(N[N+](=O)[O-])n1` is inactive: -4.85%; for `O=C(OC1CN2CCC1CC2)C12CC3CC(CC(C3)C1)C2` (stereo not given) it is inactive: -0.47%. Still for that read-out and setting: the figure for `Cc1c2c(nc3ccccc13)SC(C(Cl)Cl)C2` (stereo not given) is inactive: -6.68%.

`COc1cc(I)ccc1[As](=O)(O)O`: the max response, negative = inhibition is inactive: -19.1%.

As to `O=P1(N(CCCl)CCCl)OCCCN1CCCl` (stereo not given), the max response, negative = inhibition is inactive: -7.09%. In the case of `O=P1(N(CCCl)CCCl)Nc2ccccc2N1`, the max response, negative = inhibition is inactive: -7.65%.

Turning to `COc1ccc(N/C(=N/P(=O)(N2CCOCC2)N2CCOCC2)N2CCOCC2)cc1`, the max response, negative = inhibition was inactive: -1.27%. As for `O=[N+]([O-])c1cc(Oc2ccc([N+](=O)[O-])cc2C(F)(F)F)cc([N+](=O)[O-])c1`, the max response, negative = inhibition is inactive: 4.3%.
